One assay deals with A17λ reactibody. Format: binding, human. The settings on record: read-out: Kd (BiaCore affinity constant). Background: SPR reads the build-up and loss of mass on a sensor chip optically.
In assay [1] the target is pep54C, cyclic (oxidized) synthetic peptide 54. Description: SPR; Biacore T200, SA sensor chip; biotinylated synthetic peptides immobilised, antibodies injected at a range of concentrations, 10 µl/min, 298 K; association and dissociation 300 s each; 1:1 binding model, affinity-analysis option.
The target of assay [2] is pep50C, cyclic (oxidized) synthetic peptide 50. Described as above.

By Kd is commonly meant a measure of binding affinity in units of concentration.

Consider `CC(C)C[C@@H]1NC(=O)CNC(=O)[C@H](Cc2c[nH]c3ccccc23)NC(=O)[C@@H]2CCCN2C(=O)[C@H](CC(N)=O)NC(=O)[C@@H]2CCCN2C(=O)[C@@H](NC(=O)[C@H](C)NC(=O)CN)CSSC[C@@H](C(=O)NCC(=O)N[C@@H](C)C(=O)N[C@@H](C)C(=O)NCC(=O)N[C@@H](C)C(=O)N[C@@H](CCC(=O)O)C(=O)N[C@@H](CCCCNC(=O)CCCC[C@@H]2SC[C@@H]3NC(=O)N[C@@H]32)C(N)=O)NC(=O)[C@H](CC(C)C)NC1=O` [54C], for which the dissociation constant (Kd) on A17λ reactibody was determined as 4.8 µM.
“FabA17λ (Fab of the A17 reactibody with the λ light-chain constant domain)”: the Kd in assay [1] turned out to be 4.8 µM; in assay [2] it was 2.2 µM.
Take `CC(C)C[C@@H]1NC(=O)CNC(=O)[C@H](Cc2c[nH]c3ccccc23)NC(=O)[C@@H]2CCCN2C(=O)[C@H](CC(N)=O)NC(=O)[C@H](CCCNC(=N)N)NC(=O)[C@@H](NC(=O)[C@H](C)NC(=O)CN)CSSC[C@@H](C(=O)NCC(=O)N[C@@H](C)C(=O)N[C@@H](C)C(=O)NCC(=O)N[C@@H](C)C(=O)N[C@@H](CCC(=O)O)C(=O)N[C@@H](CCCCNC(=O)CCCC[C@@H]2SC[C@@H]3NC(=O)N[C@@H]32)C(N)=O)NC(=O)[C@H]([C@@H](C)O)NC1=O` [50C]: the Kd on A17λ reactibody was determined as 2.2 µM.

For the origin of these results see article PMC3949517 (Acta Crystallographica Section D: Biological Crystallography, 2014).
